The results in this text go back to patent publication US7585941B2 (priority 2004, dated 2009).

By UniProt entry, the sequences of proteins in these tests, tags left out. Residues count along the entry.
UniProt P33535, whole entry: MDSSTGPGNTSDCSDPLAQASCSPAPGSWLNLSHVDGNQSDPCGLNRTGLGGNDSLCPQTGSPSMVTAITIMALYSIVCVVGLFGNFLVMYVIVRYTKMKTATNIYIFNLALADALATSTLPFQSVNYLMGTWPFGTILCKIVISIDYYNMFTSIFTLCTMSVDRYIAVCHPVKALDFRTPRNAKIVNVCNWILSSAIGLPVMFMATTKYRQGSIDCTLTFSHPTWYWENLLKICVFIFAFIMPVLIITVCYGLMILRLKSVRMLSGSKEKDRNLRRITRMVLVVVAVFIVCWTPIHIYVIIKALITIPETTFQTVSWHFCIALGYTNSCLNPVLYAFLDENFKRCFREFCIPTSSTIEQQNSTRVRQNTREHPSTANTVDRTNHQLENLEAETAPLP
UniProt P33535, 1-386 limits assumed: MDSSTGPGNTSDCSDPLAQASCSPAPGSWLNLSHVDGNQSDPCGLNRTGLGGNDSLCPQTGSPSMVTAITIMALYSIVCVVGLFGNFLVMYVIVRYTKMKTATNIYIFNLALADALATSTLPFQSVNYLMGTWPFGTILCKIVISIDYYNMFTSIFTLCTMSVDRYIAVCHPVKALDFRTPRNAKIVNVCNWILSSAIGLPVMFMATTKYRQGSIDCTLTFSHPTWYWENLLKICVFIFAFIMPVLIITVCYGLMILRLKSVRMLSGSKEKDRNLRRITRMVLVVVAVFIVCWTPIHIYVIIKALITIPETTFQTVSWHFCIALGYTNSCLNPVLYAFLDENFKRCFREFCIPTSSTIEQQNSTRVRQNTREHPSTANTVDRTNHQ
UniProt P33535, 1-390 isoform P33535-2: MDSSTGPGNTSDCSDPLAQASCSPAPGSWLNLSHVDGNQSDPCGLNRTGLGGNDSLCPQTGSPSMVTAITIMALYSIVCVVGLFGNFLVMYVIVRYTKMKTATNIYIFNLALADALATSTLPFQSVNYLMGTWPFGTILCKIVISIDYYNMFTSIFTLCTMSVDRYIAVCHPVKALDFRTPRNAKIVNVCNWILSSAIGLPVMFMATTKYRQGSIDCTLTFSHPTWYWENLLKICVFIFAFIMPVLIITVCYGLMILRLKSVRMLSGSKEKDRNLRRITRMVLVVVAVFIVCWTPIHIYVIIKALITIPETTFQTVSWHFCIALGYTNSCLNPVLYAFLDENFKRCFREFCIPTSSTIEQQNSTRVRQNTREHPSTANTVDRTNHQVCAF
UniProt P33535, 1-451 isoform P33535-6: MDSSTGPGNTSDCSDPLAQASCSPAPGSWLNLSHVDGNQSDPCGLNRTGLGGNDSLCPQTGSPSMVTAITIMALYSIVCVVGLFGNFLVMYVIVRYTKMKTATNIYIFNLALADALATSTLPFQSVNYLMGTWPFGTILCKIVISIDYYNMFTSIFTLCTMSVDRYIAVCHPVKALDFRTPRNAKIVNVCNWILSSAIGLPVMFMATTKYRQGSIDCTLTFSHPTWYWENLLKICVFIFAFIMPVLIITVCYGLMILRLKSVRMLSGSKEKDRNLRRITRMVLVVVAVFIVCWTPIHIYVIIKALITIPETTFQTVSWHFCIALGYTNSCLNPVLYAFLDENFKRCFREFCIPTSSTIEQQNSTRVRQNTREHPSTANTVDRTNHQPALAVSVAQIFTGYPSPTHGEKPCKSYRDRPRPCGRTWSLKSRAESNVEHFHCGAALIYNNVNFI
UniProt P33535, 1-387 isoform P33535-8 I238V: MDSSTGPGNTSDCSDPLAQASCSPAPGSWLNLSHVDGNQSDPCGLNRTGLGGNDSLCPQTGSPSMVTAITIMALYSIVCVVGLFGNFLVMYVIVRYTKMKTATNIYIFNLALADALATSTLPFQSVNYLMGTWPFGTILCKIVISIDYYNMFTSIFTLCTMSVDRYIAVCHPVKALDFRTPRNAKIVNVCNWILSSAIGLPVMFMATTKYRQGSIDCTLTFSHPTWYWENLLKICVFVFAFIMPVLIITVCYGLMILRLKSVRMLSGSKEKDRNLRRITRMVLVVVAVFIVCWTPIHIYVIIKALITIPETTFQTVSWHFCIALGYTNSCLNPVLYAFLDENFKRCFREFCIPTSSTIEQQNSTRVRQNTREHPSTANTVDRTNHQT

Holding throughout (assay): biochemical
Test [1] addresses T1, rMOR-1 (Rattus norvegicus, UniProt P33535). Format: binding.
For the next test, the target named is T2, rMOR-1 (no E4) (Rattus norvegicus, UniProt P33535).
T2 construct: rMOR-1 no E 4; expressed in transfected cells
Format: binding.

Test [2] has as its target T3, rMOR-1A (Rattus norvegicus, UniProt P33535). Format: binding.
Test [3] deals with T4, rMOR-1C1 (Rattus norvegicus, UniProt P33535). Format: binding.
Test [4] has as its target T5, rMOR-1D (Rattus norvegicus, UniProt P33535). Format: binding.
For test [5], the target named is T1, rMOR-1. To be noted: stimulation of [35S]GTPγS binding. Background: GTPγS is a poorly hydrolysed GTP analogue; its binding reports G protein activation.
The next test has as its target rMOR-1 (no Exon 4) (Rattus norvegicus, UniProt P33535). To be noted: stimulation of [35S]GTPγS binding.
Test [6] addresses T3, rMOR-1A. To be noted: stimulation of [35S]GTPγS binding.
Test [7] deals with T4, rMOR-1C1.
Test [8] addresses T5, rMOR-1D.

In general, Ki refers to a measure of affinity in units of concentration, obtained from inhibition or displacement. What is called EC50 is the concentration at which the effect is half-maximal. High values mean a less potent agent, low ones a more potent agent. `C[C@@H](NC(=O)[C@@H](N)Cc1ccc(O)cc1)C(=O)NCC(=O)N(C)[C@@H](Cc1ccccc1)C(=O)NCCO` [DAMGO, [D-Ala^2,MePhe^4,Gly(ol)^5]enkephalin]: the Ki on rMOR-1 [1] was 3.3 ± 0.6 nM; at rMOR-1 (no E4) it was 2.4 ± 0.4 nM; on rMOR-1A [2] it was 6 ± 0.9 nM; at rMOR-1C1 [3], 4.5 ± 0.9 nM; at rMOR-1D [4], 4.7 ± 1.2 nM. Also, the EC50 at rMOR-1 [5] is 12 ± 3 nM; at rMOR-1 (no Exon 4), 86 ± 16 nM; at rMOR-1A [6], 13 ± 5 nM; on rMOR-1C1 [7] it was 4 nM; at rMOR-1D [8], 125 ± 26 nM.

The Kd is the equilibrium constant for the complex coming apart. A high value points to a looser complex. For the molecule `C[C@@H](NC(=O)[C@@H](N)Cc1ccc(O)cc1)C(=O)NCC(=O)N(C)[C@@H](Cc1ccccc1)C(=O)NCCO` [[3H]DAMGO], the Kd on rMOR-1 [1] was 2.8 ± 0.79 nM; at rMOR-1 (no E4), 4.5 ± 1.1 nM; on rMOR-1A [2], 2.5 ± 0.2 nM; at rMOR-1C1 [3] it was 4.8 ± 0.6 nM; at rMOR-1D [4], 4.7 ± 1.2 nM.
